Where two headings read alike, the source gives them in different places.
What was measured:
CRF1R = target: T1, CRF1R (Homo sapiens, UniProt P34998); assay: CRF1R agonist activity (EC50, Emax), called comparative CRF binding; format: cell-based
T1 sequence (P34998 24-415): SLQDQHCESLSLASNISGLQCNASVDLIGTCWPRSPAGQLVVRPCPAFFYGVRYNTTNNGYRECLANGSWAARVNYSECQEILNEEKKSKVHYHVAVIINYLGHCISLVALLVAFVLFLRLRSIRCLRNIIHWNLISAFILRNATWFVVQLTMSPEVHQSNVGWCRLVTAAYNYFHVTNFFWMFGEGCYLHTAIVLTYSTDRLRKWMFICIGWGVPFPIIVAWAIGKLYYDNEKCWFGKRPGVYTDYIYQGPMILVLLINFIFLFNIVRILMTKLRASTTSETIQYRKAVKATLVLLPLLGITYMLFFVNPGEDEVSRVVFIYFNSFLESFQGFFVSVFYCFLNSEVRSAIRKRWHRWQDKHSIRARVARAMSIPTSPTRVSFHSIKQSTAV
Procedure, shortened: (§1)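 Receptor activation was followed through cAMP, measured in lysates or by a CRE-linked reporter, after peptide or vehicle exposure. Cells carried a single CRF receptor subtype, CRF1R or CRF2R; where both were present, background from the non-target receptor was subtracted.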

CRF2R = target: T2, CRF2R (Homo sapiens, UniProt Q13324); assay: CRF2R agonist activity (EC50, Emax), called comparative CRF binding; format: cell-based
T2 sequence (Q13324 1-411): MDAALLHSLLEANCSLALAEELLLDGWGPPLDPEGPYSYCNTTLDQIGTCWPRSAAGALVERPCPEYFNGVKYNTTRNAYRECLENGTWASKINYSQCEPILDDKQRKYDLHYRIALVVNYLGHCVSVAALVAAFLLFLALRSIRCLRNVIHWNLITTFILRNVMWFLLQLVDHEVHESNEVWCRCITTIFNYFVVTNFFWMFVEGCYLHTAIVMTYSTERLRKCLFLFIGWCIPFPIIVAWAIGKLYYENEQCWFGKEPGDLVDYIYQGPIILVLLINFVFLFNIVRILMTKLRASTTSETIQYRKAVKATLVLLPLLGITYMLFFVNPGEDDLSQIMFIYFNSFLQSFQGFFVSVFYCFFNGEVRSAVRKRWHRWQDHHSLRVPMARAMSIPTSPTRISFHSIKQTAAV
Procedure, shortened: as §1

Compound	EC50 (CRF1R) [nM]	EC50 (CRF2R) [nM]	EC50 (CRF1R; read-out: CRF1R EC50) [nM]	EC50 (CRF2R; read-out: CRF2R EC50) [nM]
CC[C@H](C)[C@H](NC(=O)[C@@H](NC(=O)[C@H](C)NC(=O)[C@H](CC(C)C)NC(=O)[C@H](CC(C)C)NC(=O)[C@H](CC(C)C)NC(=O)[C@H](C)NC(=O)[C@H](CC(N)=O)NC(=O)[C@H](CC(N)=O)NC(=O)[C@H](C)NC(=O)[C@H](C)NC(=O)[C@H](CCC(N)=O)NC(=O)[C@H](CCC(N)=O)NC(=O)[C@H](CCCCN)NC(=O)[C@H](CCC(=O)O)NC(=O)[C@H](CCCCN)NC(=O)[C@H](CCC(=O)O)NC(=O)[C@H](CCC(N)=O)NC(=O)[C@H](CCCCN)NC(=O)[C@H](CCC(=O)O)NC(=O)[C@@H](NC(=O)[C@H](CCC(=O)O)NC(=O)[C@@H](NC(=O)[C@H](CCSC)NC(=O)[C@H](CCCCN)NC(=O)[C@H](CCCNC(=N)N)NC(=O)[C@H](CC(C)C)NC(=O)[C@H](CC(C)C)NC(=O)[C@H](Cc1c[nH]cn1)NC(=O)[C@H](CC(C)C)NC(=O)[C@@H]1CCCN1C(=O)[C@H](CC(C)C)NC(=O)[C@H](CC(=O)O)NC(=O)[C@@H](NC(=O)[C@H](CO)NC(=O)[C@@H](NC(=O)[C@@H]1CCCN1C(=O)[C@@H]1CCCN1C(=O)CNC(=O)[C@@H]1CCC(=O)N1)[C@@H](C)CC)[C@@H](C)CC)[C@@H](C)CC)[C@@H](C)CC)[C@@H](C)O)C(N)=O [compound 241]	308	12.6	–	–
CC[C@H](C)[C@H](NC(=O)[C@H](CCC(=O)O)NC(=O)[C@@H](NC(=O)[C@H](CCSC)NC(=O)[C@H](CCCCN)NC(=O)[C@H](CCCNC(=N)N)NC(=O)[C@H](CC(C)C)NC(=O)[C@H](CC(C)C)NC(=O)[C@H](Cc1ccc(O)cc1)NC(=O)[C@H](CC(C)C)NC(=O)[C@@H]1CCCN1C(=O)[C@H](CC(C)C)NC(=O)[C@H](CC(=O)O)NC(=O)[C@@H](NC(=O)[C@H](CO)NC(=O)[C@@H](NC(=O)[C@@H]1CCCN1C(=O)[C@@H]1CCCN1C(=O)CNC(=O)[C@@H]1CCC(=O)N1)[C@@H](C)CC)[C@@H](C)CC)[C@@H](C)CC)C(=O)N[C@@H](CCC(=O)O)C(=O)N[C@@H](CCCCN)C(=O)N[C@@H](CCC(N)=O)C(=O)N[C@@H](CCC(=O)O)C(=O)N[C@@H](CCCCN)C(=O)N[C@@H](CCC(=O)O)C(=O)N[C@@H](CCCCN)C(=O)N[C@@H](CCC(N)=O)C(=O)N[C@@H](CCC(N)=O)C(=O)N[C@@H](C)C(=O)N[C@H](C(=O)N[C@H](C(=O)N[C@@H](CC(N)=O)C(=O)N[C@@H](C)C(=O)N[C@@H](CCCNC(=N)N)C(=O)N[C@@H](CC(C)C)C(=O)N[C@@H](CC(C)C)C(=O)N[C@@H](CC(=O)O)C(=O)N[C@H](C(=O)N[C@H](C(N)=O)C(C)C)[C@@H](C)O)[C@@H](C)O)[C@@H](C)O [compound 242]	358	29	–	–
CC[C@H](C)[C@H](NC(=O)[C@H](CCC(=O)O)NC(=O)[C@@H](NC(=O)[C@H](CCSC)NC(=O)[C@H](CCCCN)NC(=O)[C@H](CCCNC(=N)N)NC(=O)[C@H](CC(C)C)NC(=O)[C@H](CC(C)C)NC(=O)[C@H](Cc1ccc(O)cc1)NC(=O)[C@H](CC(C)C)NC(=O)[C@@H]1CCCN1C(=O)[C@H](CC(C)C)NC(=O)[C@H](CC(=O)O)NC(=O)[C@@H](NC(=O)[C@H](CO)NC(=O)[C@@H](NC(=O)[C@@H]1CCCN1C(=O)[C@@H]1CCCN1C(=O)CNC(=O)[C@@H]1CCC(=O)N1)[C@@H](C)CC)[C@@H](C)CC)[C@@H](C)CC)C(=O)N[C@@H](CCC(=O)O)C(=O)N[C@@H](CCCCN)C(=O)N[C@@H](CCC(N)=O)C(=O)N[C@@H](CCC(=O)O)C(=O)N[C@@H](CCCCN)C(=O)N[C@@H](CCC(=O)O)C(=O)N[C@@H](CCCCN)C(=O)N[C@@H](CCC(N)=O)C(=O)N[C@@H](CCC(N)=O)C(=O)N[C@@H](C)C(=O)N[C@H](C(=O)N[C@H](C(=O)N[C@@H](CC(N)=O)C(=O)N[C@@H](C)C(=O)N[C@@H](CCCNC(=N)N)C(=O)N[C@@H](CC(C)C)C(=O)N[C@@H](CC(C)C)C(=O)N[C@@H](CC(=O)O)C(=O)N[C@@H](CCCNC(=N)N)C(=O)N[C@H](C(N)=O)C(C)C)[C@@H](C)O)[C@@H](C)O [compound 243]	–	–	440	16.8

Reference: patent US7192924B2, “Corticotropin releasing factor 2 receptor agonists” (priority 2002, dated 2007)
